# Data from patent US11559058B2, “Synergistic antimicrobial effects among rosemary extract, cultured dextrose and buffered vinegar” (KALAMAZOO HOLDINGS, INC., priority 2019, dated 2023).
# System: Salmonella enterica serovar typhimurium (ATCC® 14028™)
# Assay: Growth inhibition in brain heart infusion broth (OD600, delta growth, percentage inhibition)
# Format: cell-based
# Conditions: BHI pH 5.2, 37° C., 24 hours, chloramphenicol 0.02%
# Procedure: Salmonella enterica serovar typhimurium (ATCC® 14028™) was obtained from ATCC (Manassas, Va.). Alternatively, lactic acid bacteria including Propionibacterium spp., Lactococcus lactis, Lactobacillus reuteri, may be used in the assay as representative microbial sources. Brain heart infusion broth (BD, Sparks, Md.) was used as a growth medium and the pH was adjusted to pH 5.2 with HCl. Chloramphenicol (Sigma, St. Louis, Mo.) was used as a positive control. All cultures were incubated at 37° C. with agitation at 220 rpm for 24 hours. Growth was determined by measuring the optical density at 600 nm (OD600) with BIOTEK PowerWave HT 340 spectrophotometer (BIOTEK, Winooski, Vt.). Delta growth was calculated by subtracting the growth measured at 0 hours from the growth measured at 24 hours. Percentage inhibition was calculated by the following equation: [formula] All experiments were performed in triplicate. Rosemary essential oil (RO), buffered vinegar (BV), and cultured dextrose (CD) was tested for synergistic antimicrobial activity against S. typhimurium. Prior to synergy testing, minimum inhibitory concentration (MIC) of each compound was determined. The concentrations showing sub-inhibitory or no inhibitory effect were used for synergy test. Two-way synergy was determined by the following equations: Percentage inhibition of [a% rosemary essential oil and b% cultured dextrose mix]>Percentage inhibition of [a% rosemary essential oil]+Percentage inhibition of [b% cultured dextrose] Percentage inhibition of [a% rosemary essential oil and c% buffered vinegar mix]>Percentage inhibition of [a% rosemary essential oil]+Percentage inhibition of [c% buffered vinegar] Percentage inhibition of [b% cultured dextrose and c% buffered vinegar mix]>Percentage inhibition of [b% cultured dextrose]+Percentage inhibition of [c% buffered vinegar] Test for Three-Way Synergy The concentration of rosemary essential oil, buffered vinegar, and cultured dextrose used for the three-way synergy test was designed to have slight synergistic antimicrobial effects when two agents were combined, but not showing 100% inhibition against S. typhimurium. Three-way synergy was determined when all of the following conditions were met: Percentage inhibition of [a% rosemary essential oil and b% cultured dextrose and c% buffered vinegar mix]>Percentage inhibition of [a% rosemary essential oil]+Percentage inhibition of [b% cultured dextrose]+Percentage inhibition of [c% buffered vinegar] Percentage inhibition of [a% rosemary essential oil and b% cultured dextrose and c% buffered vinegar mix]>Percentage inhibition of [a% rosemary essential oil and b% cultured dextrose mix]+Percentage inhibition of [c% buffered vinegar] Percentage inhibition of [a% rosemary essential oil and b% cultured dextrose and c% buffered vinegar mix]>Percentage inhibition of [a% rosemary essential oil and c% buffered vinegar mix]+Percentage inhibition of [b% cultured dextrose] Percentage inhibition of [a% rosemary essential oil and b% cultured dextrose and c% buffered vinegar mix]>Percentage inhibition of [b% cultured dextrose and c% buffered vinegar mix]+Percentage inhibition of [a% rosemary essential oil] […] Growth was determined by measuring the optical density at 600 nm. Delta growth was calculated by subtracting the growth measured at 0 hours from the growth measured at 24 hours. […]
smiles,measurement,setting,value
O=C(N[C@H](CO)[C@H](O)c1ccc([N+](=O)[O-])cc1)C(Cl)Cl [Chloramphenicol],Inhibition (%),"Example 1, rosemary essential oil 0.50%, cultured dextrose 0.16%, combination 0.5% + 0.16%",97%
same,Inhibition (%),"Example 2, rosemary essential oil 0.50%, buffered vinegar 0.0625%, combination 0.5% + 0.0625%",99%
same,Inhibition (%),"Example 3, cultured dextrose 0.16%, buffered vinegar 0.0625%, combination 0.16% + 0.0625%",98%
same,Inhibition (%),"Example 4, rosemary essential oil 0.50%, cultured dextrose 0.112%, buffered vinegar 0.044%, same concentrations in combinations",99%
same,Inhibition (%),"Example 5, cultured dextrose 0.2%, buffered vinegar 0.065%, clove oil 0.025%, thyme oil 0.03%, pimento leaf oil 0.05%, same concentrations in combinations",100%
